## Antibody variant affinities, Ab-14 light chain, assay 1

Data: MIT Lincoln Laboratory AlphaSeq set, Engelhart et al. 2022, doi:10.1038/s41597-022-01779-4, as distributed in FLAb.

Binding partner: SARS-CoV-2 spike HR2 peptide, sequence PDVDLGDISGINAS.

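Phage display of a naive human antibody library on the peptide gave the parent. Variants in AAYL50 differ from the parent at up to three CDR positions; double and triple changes were sampled at random. In AlphaSeq, yeast of one mating type display the scFv and yeast of the other type display the target. After mating in shaken culture at 30 °C for 16 h, diploids were selected and their barcode pairs sequenced. Read counts were normalised to the haploid input and turned into Kd by a linear fit to BCL2-family pairs of known affinity, for each replicate. There are three technical replicates.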

Each scFv is VH, a (GGGGS)3 linker, VL, as in the parent Ab-14, and differs from it in the CDRs of the light chain only.
VH: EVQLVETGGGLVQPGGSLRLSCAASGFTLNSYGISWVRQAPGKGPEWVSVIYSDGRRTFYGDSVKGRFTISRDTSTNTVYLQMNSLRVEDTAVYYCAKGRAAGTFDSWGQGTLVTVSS
VL: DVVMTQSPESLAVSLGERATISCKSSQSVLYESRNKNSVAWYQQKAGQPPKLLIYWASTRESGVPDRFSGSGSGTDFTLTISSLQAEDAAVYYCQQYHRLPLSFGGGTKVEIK

Changes read parent residue, position, new residue, counted from the first residue of the VL shown. This list gathers variants with a substitution at N37 (VL, numbered from residue 1). Each Kd is an estimate from the mating assay, the geometric mean of the replicates in which the pair was seen; lower is stronger. An entry "nd" has no value in the source: the pair was not observed among the diploids in any replicate. This suggests poor binding but is not conclusive. Order: sorted from the lowest average up, undetected variants last. Parent in this assay: reference entry 4.4 nM, copy in this library 48 nM. Empty control strains, which show no peptide, gave a signal in 18% of pairings with library AAYL50; the median was 15 µM and 95% of these signals were weaker than 970 nM. No background was subtracted.

N37H Y97R R99L: 12 nM (3 of 3 replicates).
S26E N37D: 13 nM (3 of 3 replicates).
R34M N37F T59M: 14 nM (3 of 3 replicates).
N37K E61V: 15 nM (3 of 3 replicates).
S25D R34A N37R: 17 nM (3 of 3 replicates).
N37F Q95M S103T: 18 nM (3 of 3 replicates).
E32T N37E S58D: 20 nM (3 of 3 replicates).
N37E E61M: 28 nM (3 of 3 replicates).
S33E N37E Y97E: 30 nM (3 of 3 replicates).
N37D Y97N: 51 nM (3 of 3 replicates).
S33K N37S S62V: 55 nM (3 of 3 replicates).
S33E N37D R99E: 56 nM (3 of 3 replicates).
L30N S33H N37F: 59 nM (3 of 3 replicates).
S28Q N37F: 73 nM (3 of 3 replicates).
K24A R34M N37F: 82 nM (3 of 3 replicates).
N37R Q96I Y97S: 110 nM (3 of 3 replicates).
Q27I S28E N37L: 170 nM (3 of 3 replicates).
V29C Y31M N37I: 190 nM (3 of 3 replicates).
E32H N37S: 430 nM (2 of 3 replicates).
S26N E32I N37C: 670 nM (1 of 3 replicates).
N37M P101W L102V: 700 nM (1 of 3 replicates).
K36I N37W H98I: 760 nM (2 of 3 replicates).
V29E N37P S38N: 840 nM (3 of 3 replicates).
L30M S33Y N37V: 1.0 µM (3 of 3 replicates).
S28F N37K R99A: 1.2 µM (2 of 3 replicates).
K36C N37A Y97W: 3.6 µM (3 of 3 replicates).
K24D N37I V39T: 5.1 µM (2 of 3 replicates).
S26I E32T N37K: 8.2 µM (2 of 3 replicates).
S26R N37C A57W: 110 µM (3 of 3 replicates).
N37R S38W S58Q: 260 µM (1 of 3 replicates).
N37W Q95Y Q96T: nd (0 of 3 replicates).
N37F S38M Q95P: nd (0 of 3 replicates).
K24C N37A T59Y: nd (0 of 3 replicates).
V29H N37P R60I: nd (0 of 3 replicates).
N35C N37V S38A: nd (0 of 3 replicates).
N37R S58W S62C: nd (0 of 3 replicates).
N37M E61K Q96V: nd (0 of 3 replicates).
Q27L N37V L100H: nd (0 of 3 replicates).
N37V A57C T59I: nd (0 of 3 replicates).

The first 2 entries again:

| changes | Kd (apparent) | detected |
|---|---|---|
| N37H Y97R R99L | 12 nM | 3/3 |
| S26E N37D | 13 nM | 3/3 |